# Values quoted from earlier work, collected in US4755385A, “Oral pharmaceutical preparations containing 9-deoxo-11-deoxy-9,11-[imino[2-(2-methoxyethoxy)-ethylidene]-oxy]-(9S)-e rythromycin” (priority 1985, dated 1988).
# Details: compared with other antibiotics of same structural type, e.g. erythromycin; cited from earlier work
smiles,measurement,value
"CC[C@H]1OC(=O)[C@H](C)[C@@H](O[C@H]2C[C@@](C)(OC)[C@@H](O)[C@H](C)O2)[C@H](C)[C@@H](O[C@@H]2O[C@H](C)C[C@H](N(C)C)[C@H]2O)[C@](C)(O)C[C@@H](C)[C@@H]2NC(COCCOC)O[C@H]([C@H]2C)[C@]1(C)O (stereo partly drawn) [AS-E 136, 9-deoxo-11-deoxy-9,11-[imino[2-(2-methoxyethoxy)-ethylidene]oxy]-(9S)-erythromycin]",tissue levels,exceptionally high and long-lasting tissue levels
